The experiment has as its target catalytic subunit of cAMP-dependent protein kinase (PKA). As to the kind of experiment: cell-based or functional assay.

Regarding “PKI-K252a (from UniProt P61925 6-25) (peptide)”, the IC50, inhibition of PKA phosphotransferase activity came out at 0.221 µM.
With “PKI^A21C alkylated with bromoacetamide (from UniProt P61925 6-25) (peptide)” the figure was over 1 µM.

The values are drawn from patent US20110028686A1, “Protein binding miniature proteins” (Yale University, priority 2000, published 2011).
